Results: PubChem BioAssay AID1321 (The Scripps Research Institute Molecular Screening Center, 2008)
The entries are a selection whose mix differs from that of the whole data set. Calls of active or inactive are those of the source.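 Rule for the calls: active = activation above the mean of all tested compounds plus 3 SD, set per screening run (cut at about 8.8% in these data); inactive = the rest.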

Amino acid sequences for entries named in this document (tags omitted).
UniProt P30291, whole entry K328M: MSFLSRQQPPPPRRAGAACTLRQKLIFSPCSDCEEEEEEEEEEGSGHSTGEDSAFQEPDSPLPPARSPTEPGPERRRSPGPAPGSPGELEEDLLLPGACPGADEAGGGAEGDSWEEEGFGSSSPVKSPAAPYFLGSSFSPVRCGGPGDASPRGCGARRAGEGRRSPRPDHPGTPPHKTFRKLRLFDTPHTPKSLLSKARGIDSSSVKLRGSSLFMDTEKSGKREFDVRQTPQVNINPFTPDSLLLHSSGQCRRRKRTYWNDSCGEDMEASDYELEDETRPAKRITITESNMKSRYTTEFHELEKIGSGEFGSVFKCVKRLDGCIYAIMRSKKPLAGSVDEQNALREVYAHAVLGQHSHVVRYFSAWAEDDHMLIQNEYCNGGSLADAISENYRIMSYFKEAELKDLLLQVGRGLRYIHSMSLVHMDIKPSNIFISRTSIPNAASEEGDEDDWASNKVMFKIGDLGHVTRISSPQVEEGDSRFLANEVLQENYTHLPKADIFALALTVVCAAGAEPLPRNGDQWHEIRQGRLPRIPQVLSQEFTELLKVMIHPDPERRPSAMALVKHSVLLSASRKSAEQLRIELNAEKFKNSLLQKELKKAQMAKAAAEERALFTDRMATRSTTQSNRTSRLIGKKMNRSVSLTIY

These molecules were tested against Wee1-like protein kinase (Homo sapiens) (UniProt P30291) (assay: Wee1 degradation inhibitors, primary screen, cell-based, HeLa, Wee1K328M-luciferase, luminescence (AID 1321;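 note: cells exposed to compound for 20 h before luminescence read; 0% = DMSO alone and 100% = MG132 at 30 µM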)). Settings: HeLa Luc-Wee1K328M stability, at 5 µM, stronger effect = higher value, 100% = proteasome inhibitor MG132 effect.

Row | SMILES | reporter increase
1 | O=[N+]([O-])c1cc([N+](=O)[O-])c(Nc2ccccn2)c([N+](=O)[O-])c1 | inactive: -3.69%
